Measurements as given in US20190008957A1, “COMBINATION THERAPIES INCLUDING INHIBITORS OF THE EXTRACELLULAR DOMAIN OF E-CADHERIN” (The Research Foundation for The State of New York, priority 2012, published 2019).

Assays:
HER1, HER2, IGF-1R = assay: Western blot of receptor phosphorylation in skin and oropharyngeal SCC cell lines; type: cell-based; conditions: PAM212 cells
[1] = test system: HER2 overexpressing BT474 cells; conditions: cited from earlier work
[2] = test system: HER2-positive Trastuzumab-resistant SUM190PT cell line; conditions: cited from earlier work

COc1cc2ncnc(Nc3ccc(F)c(Cl)c3)c2cc1OCCCN1CCOCC1 [Gefitinib]
sEcad-induced HER1 phosphorylation (HER1, HER2, IGF-1R): decreased | sEcad-induced HER2 phosphorylation (pHER2) (HER1, HER2, IGF-1R): only minimal effects | phospho-IGF-1R levels (HER1, HER2, IGF-1R; in the presence of sEcad, compared to corresponding controls): did not alter

Trastuzumab: recombinant humanized monoclonal antibody against the extracellular domain of HER2
survivin expression [1]: little effect on steady-state survivin levels | survivin and XIAP levels [2]: induced the upregulation of both survivin and XIAP
